Results: patent publication US7962204B2 (priority 2001, dated 2011)
Counter-ions that a name gives are not always drawn.

What was measured:
[1] = tested on: behaviorally-diagnosed psychiatric conditions (DSM categories); design: species or system human; details: in vivo
[2] = in vivo; cited from earlier work

Structure (SMILES)	use code of agent in 296.90 Mood Disorder NOS [1]	use code of agent in 300.4 Dysthymic Disorder [1]	use code of agent in 301.13 Cyclothymic Disorder [1]	use code of agent in 312.39 Trichotillomania [1]	use code of agent in 316 Psychological Factors Affecting Medical Condition, Hypertensive Disorder NOS [1]	half-life [2]	users being even slower metabolizers [2]
CC(C)NCC(O)COc1ccc(CC(N)=O)cc1 (centres unmarked) [ATENOLOL]	N	N	N	N	N		
[Li] [Lithium, reference compound]	N	N					
CC(C)NCC(O)COc1cccc2ccccc12 (centres unmarked) [PROPRANOLOL]	N		N	N	N		
CNCCC(Oc1ccc(C(F)(F)F)cc1)c1ccccc1 (centres unmarked) [FLUOXETINE]					N		
CNCCC(Oc1ccc(C(F)(F)F)cc1)c1ccccc1 (centres unmarked) [PROZAC, fluoxetine hydrochloride]						≤ 16 days	≤ 7%
